# scFv variants of Ab-14 (heavy chain) against a SARS-CoV-2 spike peptide

Reference: Engelhart et al. 2022, doi:10.1038/s41597-022-01779-4. File: FLAb, binding data.

Target peptide (SARS-CoV-2 spike, HR2 region): PDVDLGDISGINAS

Parent scFv Ab-14: VH joined to VL by a 15-residue (Gly4Ser)3 linker. Changes lie in the heavy chain CDRs alone.
VH: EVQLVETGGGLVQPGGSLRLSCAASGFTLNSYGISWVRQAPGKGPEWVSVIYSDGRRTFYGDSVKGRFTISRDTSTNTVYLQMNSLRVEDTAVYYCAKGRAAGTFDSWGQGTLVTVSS
VL: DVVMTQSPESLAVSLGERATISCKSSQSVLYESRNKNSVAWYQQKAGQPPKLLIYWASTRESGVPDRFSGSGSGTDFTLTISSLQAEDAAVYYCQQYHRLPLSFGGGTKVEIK

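Phage display of a naive human antibody library on the peptide gave the parent. In library AAYL49, one, two or three CDR residues were substituted; doubles and triples were drawn at random. Affinity was read by AlphaSeq, a pooled yeast mating assay with surface-displayed partners. Mating (16 h, 30 °C) was followed by selection of diploids and sequencing of their barcodes. Scores were corrected for input abundance and mapped to Kd with protein pairs of known affinity run in the same pool. The assay was run in three technical replicates.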

Changes read parent residue, position, new residue, counted from the first residue of the VH shown. Numbers give log10(Kd / nM), so 0 is 1 nM and 3 is 1 µM. Smaller is tighter. Replicates are averaged; those with no signal do not enter the mean. An entry "not detected" has no value in the source: the pair was not observed among the diploids in any replicate. This suggests poor binding but is not conclusive. Empty control strains, which show no peptide, gave a signal in 15% of pairings with library AAYL49; the median was 4.06 and 95% of these signals were weaker than 2.83. No background was subtracted.

changes | mean, log10 nM | replicates with signal
T28V/V50F/D54I | 5.02 | 1 of 3
D54W/G55C/G103K | 4.58 | 1 of 3
G33R/S35N/K65M | 3.10 | 2 of 3
N30A/I34F/R57F | not detected | 0 of 3
T58A/G61A/K65I | 0.81 | 3 of 3
S31A/K65C/D106G | 2.75 | 1 of 3
G26W/I51A/S53H | 4.81 | 1 of 3
N30D/G55T/G61K | not detected | 0 of 3
N30T/R56E/F59R | 2.13 | 3 of 3
G61W/S107K | not detected | 0 of 3
T28D/Y52R/S107H | not detected | 0 of 3
I34V/D54V/A101T | 4.52 | 1 of 3
T28V/G99V/R100K | 1.31 | 3 of 3
G33V/I34A/I51W | not detected | 0 of 3
G26R/A102R/T104K | not detected | 0 of 3
T28H/Y32T | not detected | 0 of 3
S53D/V64S/G99Y | not detected | 0 of 3
I51K/R57D/K65V | not detected | 0 of 3
I34T/I51E/Y60A | not detected | 0 of 3
G33Q/V50W | 4.62 | 1 of 3
T58V/Y60L/A102G | not detected | 0 of 3
V50H/T58R/K65N | 5.84 | 1 of 3
G26Y/S107D | 3.46 | 1 of 3
N30M/Y52M/K65Y | not detected | 0 of 3
N30R/G33P/D54G | not detected | 0 of 3
G61L/A101W/A102D | 2.07 | 3 of 3
G55T/T104M | not detected | 0 of 3
S63Y/G99P/A102I | 2.82 | 1 of 3
G33K/F59S | not detected | 0 of 3
S31K/D54M | 3.75 | 1 of 3
F27M/I34C/K65F | 4.85 | 1 of 3
R100W/G103W/D106E | 0.99 | 3 of 3
T58H/S63T/V64T | 4.17 | 2 of 3
F27I/G55M/S107M | 4.52 | 3 of 3
F27R/R56M/A101C | 2.25 | 2 of 3
G33M/I34M/G55K | not detected | 0 of 3
R57W/A101K | 4.61 | 2 of 3
F27E/S35V | 1.80 | 3 of 3
T28I/D54V/T58M | 3.93 | 2 of 3
F59S/G99S | 1.83 | 3 of 3
S31P/D54C/A101D | 4.22 | 1 of 3
S31I/S53A/D106G | 3.92 | 3 of 3
D54A/F59G/G61Q | 4.10 | 1 of 3
D54T/R56W/S107R | not detected | 0 of 3
F27N/F59Q/T104K | 1.90 | 3 of 3
N30C/R100M/F105D | not detected | 0 of 3
L29W/V50N/V64C | not detected | 0 of 3
I34Y/S35V/R100V | not detected | 0 of 3
Y60W/A101K/F105V | 3.59 | 1 of 3
D62E/G99F | 4.52 | 3 of 3
G33I/F59L/A101Q | not detected | 0 of 3

Repeated from above, the 8 best binders with a signal in all replicates:

changes	mean, log10 nM	replicates with signal
T58A/G61A/K65I	0.81	3 of 3
R100W/G103W/D106E	0.99	3 of 3
T28V/G99V/R100K	1.31	3 of 3
F27E/S35V	1.80	3 of 3
F59S/G99S	1.83	3 of 3
F27N/F59Q/T104K	1.90	3 of 3
G61L/A101W/A102D	2.07	3 of 3
N30T/R56E/F59R	2.13	3 of 3